Data on four substances can be found in paper PMC5646733.

The target in experiment [1] is EGF receptor (EGFR) (human (endogenous in MDA-MB-468 and 231-H2N)) (UniProt P00533).
Experiment [2] has the same target. This is another data set of the same source.

For ^111In-EGF-Au-PEG2000 NP (ligand), in experiment [1], the proportion of total radioactivity internalised by MDA-MB-468 cells after 4 h (EGF, 40 nM; surface-bound radioactivity removed with glycine·HCl pH 2.5) (% of total radioactivity) worked out at 13.2.

For the substance ^111In-EGF-Au-PEG6000 NP (ligand), in experiment [1], the proportion of total radioactivity internalised by MDA-MB-468 cells after 4 h (EGF, 40 nM; surface-bound radioactivity removed with glycine·HCl pH 2.5) (% of total radioactivity) turned out to be 11.1. Also, the uptake of radioactivity in MDA-MB-468 xenografts in mice at 72 h p.i., with 30 µg unlabelled EGF coadministered, against none in experiment [2] was found to be 1.37 %ID/g. On to ^111In-EGF-Au-PEG800 NP (ligand), for which the proportion of total radioactivity internalised by MDA-MB-468 cells after 4 h (EGF, 40 nM; surface-bound radioactivity removed with glycine·HCl pH 2.5) (% of total radioactivity) in experiment [1] amounted to 15.1. As for “^111In-EGF-Au NP (111In-labelled DTPA-EGF attached to 14 nm gold nanoparticles, non-PEGylated) (ligand)”, the proportion of total radioactivity internalised by MDA-MB-468 cells after 4 h (EGF, 40 nM; surface-bound radioactivity removed with glycine·HCl pH 2.5) (% of total radioactivity) in experiment [1] amounted to 15.3.
